BindingDB's records for PubMed 9223553 (Institut De Recherches Servier, 1997)

The chains behind the UniProt entries cited, without tags or fusion partners.
UniProt P21917, whole entry: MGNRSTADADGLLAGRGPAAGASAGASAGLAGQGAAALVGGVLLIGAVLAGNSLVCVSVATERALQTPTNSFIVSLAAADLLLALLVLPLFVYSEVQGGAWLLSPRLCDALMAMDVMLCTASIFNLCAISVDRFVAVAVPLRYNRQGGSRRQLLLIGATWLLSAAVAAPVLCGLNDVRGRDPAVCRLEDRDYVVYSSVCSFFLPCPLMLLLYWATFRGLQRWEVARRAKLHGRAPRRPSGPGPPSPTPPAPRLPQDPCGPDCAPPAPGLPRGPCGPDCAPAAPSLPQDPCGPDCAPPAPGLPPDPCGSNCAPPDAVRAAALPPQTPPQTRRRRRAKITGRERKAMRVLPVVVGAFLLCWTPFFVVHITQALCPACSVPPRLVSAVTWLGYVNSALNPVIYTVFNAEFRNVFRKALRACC

Molecular target: D(4) dopamine receptor (Homo sapiens, UniProt P21917)

c1cnc(N2CCN(Cc3ccc4c(c3)OCO4)CC2)nc1 [NSC_4850]
pKi: 6.50

pKi: −log10 of the molar value.
